In patent EP4831180A1, “NOVEL KINASE INHIBITOR” (dated 2026):
pIC50: −log10 of the molar value.

By UniProt entry, the sequences of proteins in these tests, tags left out. Residues count along the entry.
UniProt Q9UM73, 19-1620 L1196M/G1202R limits assumed: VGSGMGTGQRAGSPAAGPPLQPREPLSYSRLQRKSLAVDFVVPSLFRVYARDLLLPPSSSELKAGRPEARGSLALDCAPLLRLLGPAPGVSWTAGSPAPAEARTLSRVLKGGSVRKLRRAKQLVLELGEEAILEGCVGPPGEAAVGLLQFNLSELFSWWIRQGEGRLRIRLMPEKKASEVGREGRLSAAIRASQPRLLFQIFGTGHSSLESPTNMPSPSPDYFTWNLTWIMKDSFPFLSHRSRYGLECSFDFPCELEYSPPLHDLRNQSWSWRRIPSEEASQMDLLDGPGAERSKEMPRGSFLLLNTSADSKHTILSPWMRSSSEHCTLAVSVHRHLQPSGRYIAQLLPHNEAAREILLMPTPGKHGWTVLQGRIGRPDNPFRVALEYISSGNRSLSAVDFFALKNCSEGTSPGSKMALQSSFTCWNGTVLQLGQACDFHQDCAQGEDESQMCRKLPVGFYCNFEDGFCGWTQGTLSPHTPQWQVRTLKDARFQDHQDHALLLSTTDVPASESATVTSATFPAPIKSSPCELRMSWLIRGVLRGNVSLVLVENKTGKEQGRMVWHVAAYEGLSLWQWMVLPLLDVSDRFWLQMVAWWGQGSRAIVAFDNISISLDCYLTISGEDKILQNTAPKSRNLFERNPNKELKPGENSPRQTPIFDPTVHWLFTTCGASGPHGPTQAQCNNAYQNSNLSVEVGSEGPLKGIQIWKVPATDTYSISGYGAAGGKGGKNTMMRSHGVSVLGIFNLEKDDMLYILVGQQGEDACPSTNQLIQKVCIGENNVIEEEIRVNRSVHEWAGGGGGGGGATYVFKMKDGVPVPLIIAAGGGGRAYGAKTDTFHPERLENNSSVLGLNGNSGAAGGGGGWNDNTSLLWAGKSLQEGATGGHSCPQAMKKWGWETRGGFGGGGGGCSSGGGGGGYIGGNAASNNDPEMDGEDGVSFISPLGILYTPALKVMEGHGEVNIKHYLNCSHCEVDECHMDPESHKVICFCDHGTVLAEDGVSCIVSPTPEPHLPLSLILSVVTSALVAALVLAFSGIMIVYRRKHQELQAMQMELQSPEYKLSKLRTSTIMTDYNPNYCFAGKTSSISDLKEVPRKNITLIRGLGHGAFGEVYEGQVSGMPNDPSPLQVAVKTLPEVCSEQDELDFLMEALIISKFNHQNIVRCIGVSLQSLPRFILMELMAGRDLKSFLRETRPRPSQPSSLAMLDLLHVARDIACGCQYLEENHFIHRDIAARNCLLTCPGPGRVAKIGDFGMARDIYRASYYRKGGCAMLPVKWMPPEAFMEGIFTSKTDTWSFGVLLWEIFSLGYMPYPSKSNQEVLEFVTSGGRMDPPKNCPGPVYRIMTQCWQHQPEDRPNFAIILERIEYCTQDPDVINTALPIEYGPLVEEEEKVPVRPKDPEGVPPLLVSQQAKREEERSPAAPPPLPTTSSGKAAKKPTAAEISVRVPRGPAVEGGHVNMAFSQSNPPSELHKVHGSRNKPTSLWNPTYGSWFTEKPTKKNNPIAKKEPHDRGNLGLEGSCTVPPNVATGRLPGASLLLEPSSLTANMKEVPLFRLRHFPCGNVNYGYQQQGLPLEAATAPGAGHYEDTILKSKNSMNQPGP
UniProt Q9UM73, 19-1620 I1171N/D1203N limits assumed: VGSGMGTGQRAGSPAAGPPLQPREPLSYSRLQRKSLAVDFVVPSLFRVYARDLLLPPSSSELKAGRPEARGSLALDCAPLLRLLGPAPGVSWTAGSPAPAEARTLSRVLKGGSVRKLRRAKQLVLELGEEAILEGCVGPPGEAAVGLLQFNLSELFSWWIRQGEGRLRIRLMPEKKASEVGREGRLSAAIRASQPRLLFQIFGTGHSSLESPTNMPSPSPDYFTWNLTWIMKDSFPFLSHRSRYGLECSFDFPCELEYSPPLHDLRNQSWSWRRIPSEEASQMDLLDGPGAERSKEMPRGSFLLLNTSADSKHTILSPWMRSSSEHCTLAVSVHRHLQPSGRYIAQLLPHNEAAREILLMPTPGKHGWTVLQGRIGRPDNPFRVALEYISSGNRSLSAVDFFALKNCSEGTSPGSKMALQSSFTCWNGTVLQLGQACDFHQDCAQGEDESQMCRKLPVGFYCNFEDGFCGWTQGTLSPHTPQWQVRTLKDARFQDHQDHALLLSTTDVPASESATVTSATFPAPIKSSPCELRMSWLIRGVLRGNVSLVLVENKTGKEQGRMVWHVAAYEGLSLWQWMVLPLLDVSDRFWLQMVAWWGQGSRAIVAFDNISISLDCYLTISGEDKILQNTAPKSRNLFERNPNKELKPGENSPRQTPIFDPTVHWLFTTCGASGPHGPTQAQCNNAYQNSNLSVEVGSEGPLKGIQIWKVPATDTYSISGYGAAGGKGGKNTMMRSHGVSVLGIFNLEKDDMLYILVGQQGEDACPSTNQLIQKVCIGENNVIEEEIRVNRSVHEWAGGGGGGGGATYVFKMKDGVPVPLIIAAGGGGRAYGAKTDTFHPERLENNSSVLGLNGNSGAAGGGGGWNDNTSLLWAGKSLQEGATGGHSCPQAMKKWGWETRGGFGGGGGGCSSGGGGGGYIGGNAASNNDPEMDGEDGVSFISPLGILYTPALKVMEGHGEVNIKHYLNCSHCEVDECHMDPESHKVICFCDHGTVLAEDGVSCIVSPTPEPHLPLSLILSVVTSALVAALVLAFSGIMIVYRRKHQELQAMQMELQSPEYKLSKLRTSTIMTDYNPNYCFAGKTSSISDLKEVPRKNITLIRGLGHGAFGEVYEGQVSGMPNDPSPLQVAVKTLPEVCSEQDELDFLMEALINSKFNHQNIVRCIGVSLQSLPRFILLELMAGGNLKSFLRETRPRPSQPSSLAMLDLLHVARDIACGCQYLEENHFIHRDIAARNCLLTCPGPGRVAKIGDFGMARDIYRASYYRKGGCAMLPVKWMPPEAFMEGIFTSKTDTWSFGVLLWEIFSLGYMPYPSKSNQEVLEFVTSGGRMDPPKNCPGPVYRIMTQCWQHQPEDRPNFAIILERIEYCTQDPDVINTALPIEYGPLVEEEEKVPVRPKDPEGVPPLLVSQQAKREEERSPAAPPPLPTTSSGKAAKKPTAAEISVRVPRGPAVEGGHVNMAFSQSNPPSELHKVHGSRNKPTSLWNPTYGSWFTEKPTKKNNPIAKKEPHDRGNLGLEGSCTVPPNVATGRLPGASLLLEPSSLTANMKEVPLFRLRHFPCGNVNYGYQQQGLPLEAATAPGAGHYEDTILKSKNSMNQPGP

How the values were obtained:
[1] = Pharmacokinetics in rats after single oral gavage dose; details: male SD rats, single oral gavage 5 mg/kg, plasma
His-ALK^G1202R/L1196M = His-ALK^G1202R/L1196M (Homo sapiens, UniProt Q9UM73, G1202R/L1196M); test: ALK G1202R/L1196M compound mutant kinase inhibitory activity assay (HTRF); details: read-out: ALK^G1202R/L1196M Enzyme, IC50, ATP 4 µM, enzyme 0.5 nM, 1 hour at 23 °C
[2] = tested on: Baf3 EML4-ALK V1^G1202R/L1196M cells; details: read-out: BaF3 EML4-ALK^G1102R/L1196M, IC50; 3 days incubation, Cell-Titer Glo
[3] = tested on: Baf3 EML4-ALK V1^I1171N/D1203N cells; details: read-out: BaF3 EML4-ALK^I1171N/D1203N IC50; 3 days incubation, Cell-Titer Glo
[4] = tested on: Ba/F3 EML4-ALK^G1202R/L1196M mutant cells; test: In vivo efficacy in ALK mutant cell line xenograft model; details: PO, 1 mg/kg, BID
[5] = Body weight in the xenograft model study; details: PO, 1 mg/kg, BID
His-ALK^I1171N/D1203N = His-ALK^I1171N/D1203N (Homo sapiens, UniProt Q9UM73, D1203N/I1171N); test: ALK I1171N/D1203N compound mutant kinase inhibitory activity assay (HTRF); details: read-out: ALK^I1171N/D1203N Enzyme, IC50, ATP 1 µM, enzyme 0.3 nM, 1 hour at 23 °C

Compound | pIC50 (His-ALK^G1202R/L1196M) | pIC50 [2] | pIC50 [3] | pIC50 (His-ALK^I1171N/D1203N) | further results
CCn1nc(C#Cc2cnc(N)cn2)c2c1-c1cnc(N)c(c1)O[C@H](C)c1cc(F)ccc1-c1nn(C)cc1C2 | > 8.30 | > 8.00 | > 8.00 |  | AUC0-inf [1]: 9130 ng·h/mL; Cmax [1]: 1140 ng/mL; T1/2 [1]: 10.0 h; Tmax [1]: 2.83 h
C#Cc1nn(CC)c2c1Cc1cn(C)nc1-c1ccc(F)cc1[C@@H](C)Oc1cc-2cnc1N | > 8.30 | > 8.00 | > 8.00 | > 8.30 | TGI (%) Day 2 [4]: 71.1%; TGI (%) Day 4 [4]: 78.4%; TGI (%) Day 7 [4]: 84.0%; TGI (%) Day 11 [4]: 92.8%; AUC0-inf [1]: 10721 ng·h/mL; Cmax [1]: 1596 ng/mL; T1/2 [1]: 3.00 h; Tmax [1]: 0.50 h; Body Weight Change (% of vehicle) Day 2 [5]: 100.2 % of vehicle; Body Weight Change (% of vehicle) Day 4 [5]: 96.9 % of vehicle; Body Weight Change (% of vehicle) Day 7 [5]: 93.6 % of vehicle; Body Weight Change (% of vehicle) Day 11 [5]: 94.8 % of vehicle
CCn1nc(N=S2(=O)CCC2)c2c1-c1cnc(N)c(c1)O[C@H](C)c1cc(F)ccc1-c1nn(C)cc1C2 | > 8.30 | > 8.00 | > 8.00 | > 8.30 | TGI (%) Day 2 [4]: 71.6%; TGI (%) Day 4 [4]: 88.7%; TGI (%) Day 7 [4]: 92.6%; TGI (%) Day 11 [4]: 93.1%; AUC0-inf [1]: 15504 ng·h/mL; Cmax [1]: 1859 ng/mL; T1/2 [1]: 4.16 h; Tmax [1]: 3.67 h; Body Weight Change (% of vehicle) Day 2 [5]: 99.0 % of vehicle; Body Weight Change (% of vehicle) Day 4 [5]: 98.9 % of vehicle; Body Weight Change (% of vehicle) Day 7 [5]: 97.1 % of vehicle; Body Weight Change (% of vehicle) Day 11 [5]: 97.5 % of vehicle
CCn1nc(C#CC2CCC(=O)CC2)c2c1-c1cnc(N)c(c1)O[C@H](C)c1cc(F)ccc1-c1nn(C)cc1C2 | > 8.30 | > 8.00 | > 8.00 | > 8.30 | 
CCn1nc(/C=C/COC)c2c1-c1cnc(N)c(c1)O[C@H](C)c1cc(F)ccc1-c1nn(C)cc1C2 | > 8.30 | > 8.00 | > 8.00 |  | AUC0-inf [1]: 10063 ng·h/mL; Cmax [1]: 3801 ng/mL; T1/2 [1]: 2.98 h; Tmax [1]: 0.33 h
CCn1nc(C#CCN2CCCC2=O)c2c1-c1cnc(N)c(c1)O[C@H](C)c1cc(F)ccc1-c1nn(C)cc1C2 | > 8.30 | > 8.00 | > 8.00 | > 8.30 | 
CCn1nc(C#CC2CCOC2)c2c1-c1cnc(N)c(c1)O[C@H](C)c1cc(F)ccc1-c1nn(C)cc1C2 (stereo partly shown) | > 8.30 | > 8.00 | > 8.00 | > 8.30 | 
(19R)-3-ethyl-16-fluoro-5-(((2S)-1,4-oxaazacyclohexan-2-yl)ethynyl)-10,1 9-dimethyl-20-oxa-3,4,10,11,23-pentaazapentacyclo[19.3.1.0^2,6.0^8,12.0^13,18]pentacosa-1(25),2(6), 4,8(9),11,13(14),15,17,21(22),23-decaen-22-amine | > 8.30 | > 8.00 | > 8.00 | > 8.30 | 
CCn1nc(C#Cc2cnn(CCOC)c2)c2c1-c1cnc(N)c(c1)O[C@H](C)c1cc(F)ccc1-c1nn(C)cc1C2 | > 8.30 | > 8.00 | > 8.00 | > 8.30 | 
C#Cc1nn(CC)c2c1Cc1cccnc1-c1ccc(F)cc1[C@@H](C)Oc1cc-2cnc1N | > 8.30 | > 8.00 | > 8.00 | > 8.30 | AUC0-inf [1]: 8619 ng·h/mL; Cmax [1]: 1425 ng/mL; T1/2 [1]: 3.81 h; Tmax [1]: 0.833 h
CCn1nc(C#Cc2ccnnc2)c2c1-c1cnc(N)c(c1)O[C@H](C)c1cc(F)ccc1-c1nn(C)cc1C2 | > 8.30 | > 8.00 | > 8.00 | > 8.30 | 
CCn1nc(C#Cc2ccc(CO)nc2)c2c1-c1cnc(N)c(c1)O[C@H](C)c1cc(F)ccc1-c1nn(C)cc1C2 | > 8.30 | > 8.00 | > 8.00 | > 8.30 | 
CCn1nc(N=S(=O)(CC)CC)c2c1-c1cnc(N)c(c1)O[C@H](C)c1cc(F)ccc1-c1nn(C)cc1C2 | > 8.30 | > 8.00 | > 8.00 | > 8.30 | AUC0-inf [1]: 11143 ng·h/mL; Cmax [1]: 3146 ng/mL; T1/2 [1]: 2.75 h; Tmax [1]: 0.33 h
CCn1nc(C#CC2CCCCN2)c2c1-c1cnc(N)c(c1)O[C@H](C)c1cc(F)ccc1-c1nn(C)cc1C2 (stereo partly shown) | > 8.30 | > 8.00 | > 8.00 | > 8.30 | 
CCn1nc(C#CC(C)(C)NS(C)(=O)=O)c2c1-c1cnc(N)c(c1)O[C@H](C)c1cc(F)ccc1-c1nn(C)cc1C2 | > 8.30 | > 8.00 | > 8.00 | > 8.30 | 
CCn1nc(C#CC2CC(C)(O)C2)c2c1-c1cnc(N)c(c1)O[C@H](C)c1cc(F)ccc1-c1nn(C)cc1C2 (stereo partly shown) | > 8.30 | > 8.00 | > 8.00 | > 8.30 | 
(19R)-3-ethyl-16-fluoro-10,19-dimethyl-5-(prop-1-yn-1-yl)-20-oxa-3,4,10, 11,23-pentaazapentacyclo[19.3.1.0^8,12.0^13,18.0^2,6]pentacosa-1(25),2(6),4,8(9),11,13(18),14,16,21 (22),23-decaen-22-amine | > 8.30 | > 8.00 | > 8.00 | > 8.30 | 

Compound | pIC50 (His-ALK^G1202R/L1196M) | pIC50 [2] | pIC50 [3] | pIC50 (His-ALK^I1171N/D1203N) | further results
CCn1nc(C#CCC2(O)CCC2)c2c1-c1cnc(N)c(c1)O[C@H](C)c1cc(F)ccc1-c1nn(C)cc1C2 | > 8.30 | > 8.00 | > 8.00 | > 8.30 | 
CCn1nc(C#Cc2cncn2C)c2c1-c1cnc(N)c(c1)O[C@H](C)c1cc(F)ccc1-c1nn(C)cc1C2 | > 8.30 | > 8.00 | > 8.00 | > 8.30 | 
CCn1nc(C#Cc2cncnc2)c2c1-c1cnc(N)c(c1)O[C@H](C)c1cc(F)ccc1-c1nn(C)cc1C2 | > 8.30 | > 8.00 | > 8.00 | > 8.30 | 
CCn1nc(C#CCN(C)C)c2c1-c1cnc(N)c(c1)O[C@H](C)c1cc(F)ccc1-c1nn(C)cc1C2 | > 8.30 | > 8.00 | > 8.00 | > 8.30 | 
C=Cc1nn(CC)c2c1Cc1cn(C)nc1-c1ccc(F)cc1[C@@H](C)Oc1cc-2cnc1N | > 8.30 | > 8.00 | > 8.00 | > 8.30 | 
CCn1nc(C#CC2COCCN2)c2c1-c1cnc(N)c(c1)O[C@H](C)c1cc(F)ccc1-c1nn(C)cc1C2 (stereo partly shown) | > 8.30 | > 8.00 | > 8.00 | > 8.30 | 
CCn1nc(C#CCN2CCN(C3CC3)CC2)c2c1-c1cnc(N)c(c1)O[C@H](C)c1cc(F)ccc1-c1nn(C)cc1C2 | > 8.30 | > 8.00 | > 8.00 | > 8.30 | 
CCn1nc(C#CC(=O)N2CCN(C)CC2)c2c1-c1cnc(N)c(c1)O[C@H](C)c1cc(F)ccc1-c1nn(C)cc1C2 | > 8.30 | > 8.00 | > 8.00 | > 8.30 | 
CCn1nc(C#CC2(O)CC2)c2c1-c1cnc(N)c(c1)O[C@H](C)c1cc(F)ccc1-c1nn(C)cc1C2 | > 8.30 | > 8.00 | > 8.00 | > 8.30 | 
CCn1nc(C#CC2CCN(C(C)=O)CC2)c2c1-c1cnc(N)c(c1)O[C@H](C)c1cc(F)ccc1-c1nn(C)cc1C2 | > 8.30 | > 8.00 | > 8.00 | > 8.30 | 
CCn1nc(C#Cc2cncn2C(F)F)c2c1-c1cnc(N)c(c1)O[C@H](C)c1cc(F)ccc1-c1nn(C)cc1C2 | > 8.30 | > 8.00 | > 8.00 | > 8.30 | 
CCn1nc(C#CCNC)c2c1-c1cnc(N)c(c1)O[C@H](C)c1cc(F)ccc1-c1nn(C)cc1C2 | > 8.30 | > 8.00 | > 8.00 | > 8.30 | 
CCn1nc(C#CC2CNCCO2)c2c1-c1cnc(N)c(c1)O[C@H](C)c1cc(F)ccc1-c1nn(C)cc1C2 (stereo partly shown) | > 8.30 | > 8.00 | > 8.00 | > 8.30 | 
CCn1nc(C#CCN2CCN(C)CC2)c2c1-c1cnc(N)c(c1)O[C@H](C)c1cc(F)ccc1-c1nn(C)cc1C2 | > 8.30 | > 8.00 | > 8.00 | > 8.30 | 
CCn1nc(C#Cc2cn(C)nn2)c2c1-c1cnc(N)c(c1)O[C@H](C)c1cc(F)ccc1-c1nn(C)cc1C2 | > 8.30 | > 8.00 | > 8.00 | > 8.30 | AUC0-inf [1]: 13245 ng·h/mL; Cmax [1]: 2012 ng/mL; T1/2 [1]: 3.81 h; Tmax [1]: 1.00 h
CCn1nc(C#CCCF)c2c1-c1cnc(N)c(c1)O[C@H](C)c1cc(F)ccc1-c1nn(C)cc1C2 | > 8.30 | > 8.00 | > 8.00 | > 8.30 | 
CCn1nc(C#CC(=O)N2CCOCC2)c2c1-c1cnc(N)c(c1)O[C@H](C)c1cc(F)ccc1-c1nn(C)cc1C2 | > 8.30 | > 8.00 | > 8.00 | > 8.30 | 
